We go through one compound from article PMC6168434 (European journal of medicinal chemistry, 2018).

Structures are written as SMILES.

The experiment relates to human proteasomes (hCP) hβ2. The settings on record: comparing 2 to 4c, Jurkat lysate.

In the case of `CC(C)[C@H](NC(=O)[C@@H]1OC(=O)[C@H]1C1CCCC1)C(=O)N[C@H](C(=O)OCc1ccccc1)C(C)C` [Compound 4c], the “improvement of inhibitory selectivity of hβ5 over hβ2, factor” value was found to be 4.
